PMC6803667, “Binding site plasticity in viral PPxY Late domain recognition by the third WW domain of human NEDD4” (Scientific Reports, 2019)

Chains of the proteins cited; added tags and fusions are not shown. Residues count along the entry.
UniProt P46934, 834-878: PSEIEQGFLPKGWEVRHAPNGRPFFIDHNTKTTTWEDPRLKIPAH

Molecular target: T1, hNEDD4-WW3 (Homo sapiens, UniProt P46934)
T1 construct: comprising aminoacids 834–878 (UniProtKB/Swiss-Prot code P46934); GST-His (pETM-30, TEV site) (N, cleaved yes); made in house; host or cells: E. coli BL21/DE3 is printed only for the pETM-11 NMR construct
Assay type: binding

With `CC(=O)N1CCC[C@H]1C(=O)N1CCC[C@H]1C(=O)N1CCC[C@H]1C(=O)N[C@@H](Cc1ccc(O)cc1)C(N)=O` [PPPY] as the compound, how does the “binding selectivity between hNEDD4-WW3, YAP-WW1 and YAP-WW2” value read?
The value was “do not distinguish between the three WW domains”.
